Biological target: T1, DPP-4 (EVs from germfree mice) (Mus musculus, UniProt P28843)
T1 construct: gene Dpp4
Assay: biochemical
Details: read-out: % inhibition at 0.33 μM

The chains behind the UniProt entries cited, without tags or fusion partners. Where a name states a change or a piece, a line headed by the entry shows the natural chain unless it says otherwise.
UniProt P28843: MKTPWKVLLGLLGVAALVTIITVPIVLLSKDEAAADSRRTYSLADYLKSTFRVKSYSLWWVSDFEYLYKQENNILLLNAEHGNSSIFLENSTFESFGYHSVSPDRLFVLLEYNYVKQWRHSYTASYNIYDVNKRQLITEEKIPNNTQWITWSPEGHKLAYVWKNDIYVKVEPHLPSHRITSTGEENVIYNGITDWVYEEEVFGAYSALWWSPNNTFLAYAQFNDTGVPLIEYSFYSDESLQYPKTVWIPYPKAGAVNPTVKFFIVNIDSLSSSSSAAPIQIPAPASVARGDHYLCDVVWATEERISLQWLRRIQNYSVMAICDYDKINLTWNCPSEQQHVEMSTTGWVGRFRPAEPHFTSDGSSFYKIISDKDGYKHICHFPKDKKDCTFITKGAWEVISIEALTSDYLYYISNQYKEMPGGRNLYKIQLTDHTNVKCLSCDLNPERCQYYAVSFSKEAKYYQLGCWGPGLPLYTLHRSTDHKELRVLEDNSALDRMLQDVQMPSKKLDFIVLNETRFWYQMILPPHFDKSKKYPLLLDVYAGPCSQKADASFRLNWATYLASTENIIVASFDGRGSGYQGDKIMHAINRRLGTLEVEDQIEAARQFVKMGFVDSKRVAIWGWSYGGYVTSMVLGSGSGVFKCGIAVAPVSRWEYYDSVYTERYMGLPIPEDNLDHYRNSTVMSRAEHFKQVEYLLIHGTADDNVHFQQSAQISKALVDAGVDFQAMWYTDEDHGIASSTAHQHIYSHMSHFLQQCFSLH

Compound: N#C[C@@H]1CCCN1C(=O)CNC12CC3CC(CC(O)(C3)C1)C2 [vildagliptin]
- inhibition at 0.33 µM: ~80%

From paper PMC9397113, “The Proteome of Extracellular Vesicles Produced by the Human Gut Bacteria Bacteroides thetaiotaomicron In Vivo Is Influenced by Environmental and Host-Derived Factors” (Applied and Environmental Microbiology, 2022)
